Measured values taken from patent publication US9072774B2, “Porphyrin nanovesicles” (UNIVERSITY HEALTH NETWORK, priority 2009, dated 2015).

Assay: Differential scanning calorimetry
Format: physicochemical
Conditions: 5 mg/ml in PBS, scan rate 1° C./min
Protocol: Differential scanning calorimetry was performed on 5 mg/ml samples of DMPC, HSPC, Lyso PC and Pyro-Lipid in PBS using a calorimetry Sciences Corp. 6100 Nano Differential Scanning calorimeter (Lindon, Utah). Samples were placed in a vacuum for 30 min prior to measurement. A scan rate of 1° C./min was used for all samples. PBS was used as the reference and one scan cycle of PBS was used as the baseline. For each lipid, three cooling and heating scans were performed and the results averaged to determine the phase transition temperature of the lipids.

transition temperature: no distinct transition temperature
Substance: Lyso-Phosphatidyl Choline (16:0)-Pyropheophorbide [Pyro-lipid]
